This is an account of results in PubChem BioAssay AID651596 (Sanford-Burnham Center for Chemical Genomics, 2012).

Only a part is listed here, and it is no random draw.

A short description of the assay: caspase-8 TRAIL sensitization, hit retest, confirmation, cell-based, NB7+caspase-8, with/without TRAIL, luminescence panel (AID 651596). Particulars: NB7 neuroblastoma + caspase-8, without TRAIL, luminescence viability, mean of runs, at 10 µM.
As to `CCCCCCCCCCCCCCCC1C[N+](C)(C)CCOP(C)(=O)O1` (configuration not stated), the activity was 91.8%.
As to `O=[N+]([O-])c1cc([N+](=O)[O-])c(Nc2ccccn2)c([N+](=O)[O-])c1`, the activity amounted to 55%.
